Measurements taken from ChEMBL document CHEMBL3585253, “Thiazolidine-2,4-dione derivatives: programmed chemical weapons for key protein targets of various pathological conditions” (2015).

Columns and labels:
[1] = Lipophilicity, log P of the compound; conditions: octanol/water
Homo sapiens = assay: Drug absorption in orally dosed human; conditions: in vivo, po

SMILES | logP [1] | Fa (Homo sapiens)
Cc1c(C)c2c(c(C)c1O)CCC(C)(COc1ccc(CC3SC(=O)NC3=O)cc1)O2 (stereo not drawn) | 4.16 | 50%
CCc1ccc(CCOc2ccc(CC3SC(=O)NC3=O)cc2)nc1 (stereo not drawn) | 3.17 | 83%
CN(CCOc1ccc(CC2SC(=O)NC2=O)cc1)c1ccccn1 (stereo not drawn) | 2.95 | 95%
COc1ccc(Oc2cc(N(C)CCOc3ccc(CC4SC(=O)NC4=O)cc3)ncn2)cc1 (stereo not drawn) | 4.2 | 72%
